For 26 compounds, IC50 results are on record in patent publication US20260384421A1, “NOVEL COMPOUNDS THAT CAN BE USED AS THERAPEUTIC AGENTS” (published 2026).

pIC50: −log10 of the molar value. A value given as a limit tells only on which side of the number the result lay.

The subject of one assay is PANC-1 cells. Put plainly: alamarBlue proliferation assay with PANC-1 cells. The note with it: read-out: Activity on PANC-1: IC50, DMEM medium, 10% FBS. On the technique in general: The colour change of resazurin is a common sign of viable cells or microbes.
A further assay relates to T-47D cells. Put plainly: alamarBlue proliferation assay with T-47D cells. The note with it: read-out: Activity on T-47D (IC50), day 5.
Another assay deals with SW-948 cells. Put plainly: alamarBlue proliferation assay with SW-948 cells (glucose-free L-15 medium). The note with it: read-out: Activity on SW-948: IC50, Leibovitz's L-15 medium, 10% FBS, 0% CO2.
In another assay the test system is HL-60 cells. Put plainly: alamarBlue proliferation assay with HL-60 cells. As to conditions: read-out: Activity on HL-60: IC50, RPMI 1640 medium, 10% FBS.
The next assay concerns RVH-421 cells. Put plainly: alamarBlue proliferation assay with RVH-421 cells (glucose-free L-15 medium). As to conditions: read-out: Activity on RVH-421: IC50, Leibovitz's L-15 medium, 10% FBS, 0% CO2.

For orientation: pIC50 means −log10 of the IC50, conventionally taken in molar units.

On to `CS(=O)(=O)c1ccc(CN2CCN(C(=O)c3ccc(Oc4ccc(C5CCC6(CC5)OCCO6)cc4CO)cc3)CC2)cc1`, for which the negative-log IC50 (pIC50) with PANC-1 cells is at least 6.00.

Take `O=Cc1cc(C2CCC3(CC2)SCCCS3)ccc1Oc1ccc(C(=O)N2CCN(Cc3ccc(Cl)cc3)CC2)nc1`: the pIC50 with T-47D cells is at least 5.30. For `CN(C)C(=O)c1ccc(CN2CCN(C(=O)c3ccc(Oc4ccc(C5CCC6(CC5)OCCO6)cc4CO)cc3)CC2)cc1`, the pIC50 with PANC-1 cells is at least 5.30.

For `COCC1(COC)CCC(c2ccc(Oc3ccc(C(=O)N4CCN(Cc5ccc(OC)cc5)CC4)cc3)c(CO)c2)CC1`, the negative logarithm of the IC50 (pIC50) in the assay with T-47D cells was at least 5.30. For the compound `COc1ccc(CN2CCN(C(=O)c3ccc(Oc4ccc(C5CCC6(CC5)OCCO6)cc4CO)cc3)CC2)cn1`, the pIC50 in the assay with PANC-1 cells was at least 6.70.

`O=C(c1ccc(Oc2ccc(C3CCC4(CCCC4)CC3)cc2CO)cc1)N1CCN(Cc2ccccc2)CC1`: the pIC50 in the assay with PANC-1 cells is at least 4.70. On to `COC1CCC(c2ccc(Oc3ccc(C(=O)N4CCN(Cc5ccc(Cl)cn5)CC4)cc3)c(CO)c2)CC1` (centres unmarked), for which, in the assay on T-47D cells, the pIC50 was at least 5.30. `O=C(c1ccc(Oc2ccc(C3CCC4(CC3)OCCO4)cc2CO)cc1)N1CCN(Cc2ccsc2)CC1`: the figures for the pIC50 with SW-948 cells, in the assay with HL-60 cells and in the assay on RVH-421 cells were at least 6.00, at least 5.30 and at least 6.70, respectively. With `O=C(c1ccc(Oc2ccc(C3CCC4(CC3)OCCO4)cc2CO)cc1)N1CCN(Cc2ccc(Cl)cc2)CC1`, the pIC50 in the assay on SW-948 cells, in the assay on HL-60 cells, in the assay with RVH-421 cells and in the assay on PANC-1 cells was at least 6.70 throughout. `O=C(c1ccc(Oc2ccc(C3CCC4(CC3)OCCO4)cc2CO)cc1)N1CCN(Cc2ccc3ccccc3c2)CC1`: the pIC50 with SW-948 cells, with HL-60 cells and in the assay on RVH-421 cells was at least 6.70 throughout.

With `O=C(c1ccc(Oc2ccc(C3CCC4(CC3)OCCO4)cc2CO)cc1)N1CCN(Cc2ccc(O)cc2)CC1`, the pIC50 in the assay with SW-948 cells is at least 6.00; in the assay on HL-60 cells, at least 5.30; in the assay on RVH-421 cells it was at least 6.70.

With `Cn1c(CN2CCN(C(=O)c3ccc(Oc4ccc(C5CCC6(CC5)OCCO6)cc4CO)cc3)CC2)cc2ccccc21`, in the assay with PANC-1 cells, the pIC50 is at least 6.70. For the compound `O=C(c1ccc(Oc2ccc(C3CCC4(CC3)OCCO4)cc2CO)cc1)N1CCN(Cc2ccoc2)CC1`, the pIC50 was at least 5.30 in the assay with SW-948 cells, at least 5.30 in the assay with HL-60 cells and at least 6.70 in the assay with RVH-421 cells. As to `O=C(c1ccc(Oc2ccc(C3CCC4(CC3)OCCO4)cc2CO)cc1)N1CCN(Cc2ccc(Cl)cn2)CC1`, the values for the pIC50 with T-47D cells and with PANC-1 cells were at least 5.30 and at least 6.00, respectively.

Take `COCC1(COC)CCC(c2ccc(Oc3ccc(C(=O)N4CCN(Cc5ccc(Cl)cc5)CC4)cc3)c(CO)c2)CC1`: in the assay with T-47D cells, the negative logarithm of the IC50 (pIC50) was at least 5.30.

Take `O=C(c1ccc(Oc2ccc(C3CCC4(CC3)OCCO4)cc2CO)cc1)N1CCCN(Cc2ccc(C(F)(F)F)cc2)CC1`: in the assay with PANC-1 cells, the pIC50 is at least 4.70. `O=C(c1ccc(Oc2ccc(C3CCC4(CC3)OCCO4)cc2CO)cc1)N1CCN(Cc2ccc3oc(=O)ccc3c2)CC1`: in the assay on PANC-1 cells, the pIC50 is at least 6.70. Turning to `O=C(c1ccc(Oc2ccc(C3CCC4(CC3)OCCO4)cc2CO)cc1)N1CCN(Cc2cccs2)CC1`, the negative logarithm of the IC50 (pIC50) in the assay with SW-948 cells was at least 5.30; in the assay with HL-60 cells, at least 5.30; in the assay with RVH-421 cells it was at least 6.70.

On to `O=C(c1ccc(Oc2ccc(C3CCC4(CC3)SCCS4)cc2CO)cn1)N1CCN(Cc2ccc(Cl)cc2)CC1`, for which the pIC50 with T-47D cells is at least 5.30. `O=C(c1ccc(Oc2ccc(C3CCC4(CC3)OCCO4)cc2CO)cc1)N1CC2CN(Cc3ccc(Cl)cc3)CC2C1` (centres unmarked): the pIC50 with PANC-1 cells was at least 5.30. Turning to `O=C(c1ccc(Oc2ccc(C3CCC4(CCCO4)CC3)cc2CO)cc1)N1CCN(Cc2ccccc2)CC1` (centres unmarked), the pIC50 in the assay with SW-948 cells was at least 6.00; with HL-60 cells, at least 5.30; with RVH-421 cells it was at least 6.70. With `COc1ccc(CN2CCN(C(=O)c3ccc(Oc4ccc(C5CCC6(CC5)SCCCS6)cc4CO)cn3)CC2)cc1`, in the assay with T-47D cells, the pIC50 is at least 5.30. As for `O=C(c1ccc(Oc2ccc(C3CCC4(CC3)OCCO4)cc2CO)cc1)N1CCN(Cc2ccc([N+](=O)[O-])cc2)CC1`, the pIC50 in the assay with SW-948 cells was at least 6.70; with HL-60 cells, at least 5.30; in the assay with RVH-421 cells, at least 6.70. Take `O=C(c1ccc(Oc2ccc(C3CCC4(CC3)OCCO4)cc2CO)cn1)N1CCN(Cc2ccccc2)CC1`: the pIC50 with T-47D cells is at least 5.30. For the compound `COC(=O)c1ccc(CN2CCN(C(=O)c3ccc(Oc4ccc(C5CCC6(CC5)OCCO6)cc4CO)cc3)CC2)cc1`, the pIC50 in the assay with PANC-1 cells was at least 5.30. Take `O=C(c1ccc(Oc2ccc(C3CCC4(CC3)SCCCS4)cc2CO)cn1)N1CCN(Cc2ccc(Cl)cc2)CC1`: the pIC50 in the assay on T-47D cells was at least 5.30.
